## scFv variants of Ab-14 (light chain) against a SARS-CoV-2 spike peptide

The target is the same throughout: PDVDLGDISGINAS, from the HR2 region of SARS-CoV-2 spike.

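Variants in AAYL50 differ from the parent at up to three CDR positions; double and triple changes were sampled at random. AlphaSeq pools MATa yeast showing the antibodies with MATalpha yeast showing the peptide. Pairs that bind mate more often; barcode pairs of the diploids are counted by sequencing. Scores were corrected for input abundance and mapped to Kd with protein pairs of known affinity run in the same pool. The assay was run in three technical replicates.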

Parent: Ab-14, a human scFv built as VH, a (GGGGS)3 linker, VL. Only the CDRs of the light chain vary.
VH: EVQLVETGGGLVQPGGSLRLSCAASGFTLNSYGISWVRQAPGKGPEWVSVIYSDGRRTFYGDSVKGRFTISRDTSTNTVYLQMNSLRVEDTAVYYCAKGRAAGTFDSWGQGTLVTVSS
VL: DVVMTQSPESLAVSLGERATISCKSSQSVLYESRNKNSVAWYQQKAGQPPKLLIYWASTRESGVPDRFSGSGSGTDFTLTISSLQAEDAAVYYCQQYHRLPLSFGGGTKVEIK

The parent's light chain CDRs are KSSQSVLYESRNKNSVA, WASTRES, QQYHRLPLS; each variant's own CDRs replace them letter for letter. Values are log10 of the apparent Kd in nM; lower means stronger binding. A pair that was not seen in that replicate is written "ND"; this usually means weak binding, but a binder can also be missed.

CDR-L1	CDR-L2	CDR-L3	log10 Kd (nM) by replicate	control signals
KSSQAVLYESRNKNSVA	WASTRHS	QIYHRLPLS	5.53 2.95 3.19	3/9 (3.70)
KSSQSVLYESRNKNSVA	CASTRES	QQYHRLPLS	1.01 1.22 0.98	1/9 (4.33)
KSSQSVLYESRNKNRYA	WASTRES	QQVHRLPLS	3.35 3.87 ND	1/9 (3.30)
KSSQSVWAESRNKNSVA	WASTRES	QAYHRLPLS	0.46 0.61 0.56	2/9 (4.26)
KSSQSVLYESRNKNSYA	VASTCES	QQYHRLPLS	ND ND ND	1/9 (2.48)
KSSQSVLYESRNSNSVR	WASTRES	QQMHRLPLS	3.85 3.21 ND	0/9
KSSQSVPYESCNKNSVA	WASTRES	QEYHRLPLS	1.79 1.75 2.13	4/9 (4.56)
KSSQSVLYESRNKNSVA	AASTRES	RQYHRTPLS	4.59 ND ND	6/9 (4.46)
KSSQSVLYRSRNKNSVA	WASTRES	EQYHRLPGS	2.02 2.13 2.12	0/9
KSSQTVLYESRNKNSVA	WNSTRES	IQYHRLPLS	ND ND ND	0/9
KSSQSVLYESRNKNSVA	VASWRES	QPYHRLPLS	ND 4.32 ND	4/9 (4.77)
KSSQSVLYNSRNKNNVA	WACTRES	QQYHRLPLS	2.47 2.21 2.16	2/9 (4.19)
KSSQSVLYESDNKNSVA	WASTRES	KQYHRLLLS	ND 3.98 ND	3/9 (4.22)
KSSQSVLYESRNKNQVA	WASTRES	QQYHRDPLS	ND ND ND	0/9
KNSQSVLYESRNKNSVA	WAHTMES	QQYHRLPLS	4.50 3.45 ND	1/9 (2.31)
KSSQSVLYEHRNHNSVA	WKSTRES	QQYHRLPLS	1.36 1.74 2.31	0/9
KSSQSVLYESRNKNSVA	WFSTRER	QQRHRLPLS	4.24 3.24 ND	0/9
KSSQSVLYESRFKNSVA	WAYTRES	QQYHRLPLS	1.82 1.62 2.46	1/9 (3.51)
MSSQSVLYESRNRNSVA	WASTRES	QQYHRLPLC	ND ND ND	0/9
KSSQSVLYESRNKNSYA	WASTRFS	QQYHRLMLS	6.05 3.61 ND	2/9 (3.77)
KSSQSVLGESRNKNSVA	WGSTRES	QQYHKLPLS	0.32 0.62 0.44	2/9 (4.78)
KSSQSVLSESRNKNSVA	WASTHES	YQYHRLPLS	5.37 4.09 4.83	8/9 (4.59)
KSSQSVLYESRNKNSVG	WASTREI	QQYHRYPLS	ND ND ND	0/9
KPSTSVLYHSRNKNSVA	WASTRES	QQYHRLPLS	2.59 2.94 2.84	2/9 (5.71)
KSSQSVLYESRNKNSVA	WASTRES	WQYHRLPLS	4.04 ND 4.03	4/9 (3.96)
KSPQSVLYESRNKMSVA	WASTRES	QQYHDLPLS	ND 3.61 ND	2/9 (3.54)
KSSQSPLYESRNKNTVA	WAYTRES	QQYHRLPLS	ND 3.06 ND	3/9 (4.51)
KSSQSVLCKSRNKNSVA	WASTRHS	QQYHRLPLS	3.19 2.93 4.00	4/9 (4.22)
KSSQSVLYESRNKNSVA	CASTRGS	QQYSRLPLS	1.54 1.65 1.92	1/9 (4.67)
KSSQSVLYESRNKMSYA	WTSTRES	QQYHRLPLS	3.15 ND ND	2/9 (3.32)
KSSQSVLYESRNKNSVA	WASGRES	CQYGRLPLS	ND ND ND	0/9
KSSQSWLYESRYKNSVA	WASTRES	QQYHRLRLS	ND ND 3.37	1/9 (3.13)
KSSQSWLYESRNKNSVA	WASTRES	WQYHRLPLS	ND ND ND	2/9 (5.23)
KSSQSVLYESRNKNSVA	WASTRES	QKYHRLQLS	0.74 0.97 1.00	1/9 (5.27)
KESQSWLYESRNKNSVA	WASTRMS	QQYHRLPLS	4.07 4.16 ND	2/9 (3.92)
KSSQSVLYESRNKNSVL	WASTRES	QQYHDLPTS	5.68 5.50 4.57	3/9 (4.69)
KSPQSVLYESRNKNSVA	WASTAET	QQYHRLPLS	3.60 ND ND	1/9 (3.89)
YSSQSVLYESRNKNSSM	WASTRES	QQYHRLPLS	4.08 3.86 ND	4/9 (4.68)
RSSQSVLYESRNKNSVA	WASTRES	QQYQRLPLK	3.39 3.57 3.76	2/9 (4.17)
KSSQSVLKESRNKNSVA	WASTRES	QQYHRLPLS	ND ND 3.44	0/9
KSYQSVLYESRNKNSVR	WASTRES	QQYHRMPLS	4.02 4.29 ND	0/9
KSSQSRLYESRNKNSVG	WASTRES	QEYHRLPLS	ND ND ND	1/9 (3.59)
KSSQSVLYESRNKWSVA	WASTRES	QQYHRLRLS	ND 3.24 ND	2/9 (3.45)
VSSQSVLKESRNKNSVA	WMSTRES	QQYHRLPLS	4.18 5.76 4.08	5/9 (4.56)
KSSQSVLYERRDKNSVA	WASTRES	QQYHRLPLN	4.65 2.89 2.95	0/9
KSVVSVLYESRNKNSVA	DASTRES	QQYHRLPLS	-0.29 0.10 -0.15	0/9
KSSHSVLYESRNKNSVA	WASTDES	QQHHRLPLS	ND ND ND	3/9 (4.56)
SSSQSVLYESRNKNSVV	WPSTRES	QQYHRLPLS	4.90 ND ND	4/9 (4.11)

For reference, 8 entries of the list once more:

CDR-L1	CDR-L2	CDR-L3	log10 Kd (nM) by replicate	control signals
KSSQSVLYESRNKNSVA	WFSTRER	QQRHRLPLS	4.24 3.24 ND	0/9
YSSQSVLYESRNKNSSM	WASTRES	QQYHRLPLS	4.08 3.86 ND	4/9 (4.68)
SSSQSVLYESRNKNSVV	WPSTRES	QQYHRLPLS	4.90 ND ND	4/9 (4.11)
KSSQSVLYESRNSNSVR	WASTRES	QQMHRLPLS	3.85 3.21 ND	0/9
KSSQSVLYESRNKNSVA	WASTRES	WQYHRLPLS	4.04 ND 4.03	4/9 (3.96)
VSSQSVLKESRNKNSVA	WMSTRES	QQYHRLPLS	4.18 5.76 4.08	5/9 (4.56)
KSSQSRLYESRNKNSVG	WASTRES	QEYHRLPLS	ND ND ND	1/9 (3.59)
KSSQSVLYESRNKNRYA	WASTRES	QQVHRLPLS	3.35 3.87 ND	1/9 (3.30)

As a blank, each scFv also met three strains without target: over library AAYL50, 18% of these pairings were detected, typically at 4.19 and seldom below 2.99. For each scFv, signals with the empty controls are counted beside the result, with their mean in brackets.

Source: Engelhart et al. 2022 (doi:10.1038/s41597-022-01779-4), MIT Lincoln Laboratory and A-Alpha Bio; data file from the FLAb repository.